Results as given in patent publication EP4837907A1, “NOVEL COMPOUND USED AS CBP/P300 INHIBITOR, AND PHARMACEUTICAL COMPOSITION FOR PREVENTING OR TREATING CANCER, INFLAMMATORY DISORDERS, OR AUTOIMMUNE DISEASES COMPRISING SAME AS ACTIVE INGREDIENT” (dated 2026).

Protein sequences, listed by entry. Tags and fused reporters are not part of them. Residues count along the entry.
UniProt Q92793, 1085-1192 limits assumed: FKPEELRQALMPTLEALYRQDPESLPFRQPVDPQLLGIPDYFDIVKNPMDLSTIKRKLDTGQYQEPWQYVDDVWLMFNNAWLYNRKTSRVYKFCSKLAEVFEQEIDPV

Columns and labels:
BRD4 (BD1) protein = BRD4 (BD1) protein (Homo sapiens, UniProt O60885); experiment: BRD4 inhibitory activity, TR-FRET assay of the BRD4 bromodomain; settings: read-out: BRD4 (BD1) IC50, BRD4 (BD1) protein 7.5 nM, Ac-H4 peptide 15 nM, room temperature 2 hours
Method: BRD4 inhibitory activity was measured using a time resolved fluorescence resonance energy transfer (TR-FRET) experiment to verify the activity of BRD4 bromodomain.
(§1) The assay was performed in a final volume of 14 µl, optimized based on a CREBBP time resolved fluorescence resonance energy transfer (TR-FRET) assay kit (BPS Bioscience, cat. 32613) to maximize an assay window, and performed in a final volume of 14 µl, while maximizing the assay window. A TR-FRET fluorescence acceptor and a Tb donor were diluted in an assay buffer containing 2-[4-(2-hydroxyethyl)piperazin-1-yl]ethanesulfonic acid (hereafter, referred to as an assay buffer, BPS Bioscience, cat. 33012), and 3 µl of each solution was transferred to all wells of a white 384-low-volume well plate (Corning, cat. 4513). 2 µl of 4X Ac-H4 peptide (final concentration 15 nM) was transferred to high control wells and test wells. Each compound was prepared at 10 concentration points by serially diluting 3-fold from the highest concentration in a dimethyl sulfoxide solvent. The compound at each concentration was then diluted in the assay buffer to prepare a diluted compound solution that was 4-fold more concentrated than the final concentration. 2 µl of each compound or dimethyl sulfoxide prepared in this way was distributed into an assay plate so that the final test concentration was a minimum of 0.5 µM to a maximum of 10 µM (final DMSO concentration 1%). 6 µL of 1X assay buffer was added to low control wells and 2 µl was added to high control and test wells. Then, 2 µl of 4X BRD4 (BD1) protein (final concentration 7.5 nM, BPS bioscience, cat 31040) was added to initiate a PPI reaction. The plate was reacted at room temperature for 2 hours before measuring the signal. The TR-FRET signal was measured using an EnVision Multilabel plate reader (PerkinElmer; Mirror LNACE/DELFIA Dual/Bias). For data analysis, the values of each well were obtained using the TR-FRET ratio ((Signal 665 nm/Signal 615 nm) × 20000). Data analysis was performed using the TR-FRET ratio ((Signal 665 nm/Signal 615 nm) × 20000). Data were reported as percent inhibition compared to control wells based on the following equation: %Activity = ((FRETcompound - FRETLow av)/(FRETHigh av - FRETLow av)) × 100. IC50 analysis was determined by standard 4 parameter curve fitting according to an algorithm using GraphPad Prism 7.0 (GraphPad Software Inc., La Jolla, CA, USA). All data are expressed as mean ± standard error of the mean (SEM).

CBP BRD protein = CBP BRD protein (Homo sapiens, UniProt Q92793); experiment: CBP inhibitory activity, TR-FRET assay of the CBP bromodomain; settings: read-out: CBP BRD IC50, CBP BRD protein 7.5 nM, Ac-H4 peptide 85 nM, room temperature 2 hours
Method: A time resolved fluorescence resonance energy transfer (TR-FRET) experiment was used to verify the activity of CBP bromodomain.
as §1, with “Bioscience, cat. 32619) to maximize” for “Bioscience, cat. 32613) to maximize”, “(final concentration 85 nM) was” for “(final concentration 15 nM) was”, “µM (final dimethyl sulfoxide concentration 1%).” for “µM (final DMSO concentration 1%).”, “of 4X CBP BRD protein (final” for “of 4X BRD4 (BD1) protein (final”, “bioscience, cat 31128) was added” for “bioscience, cat 31040) was added”, “obtained using a TR-FRET ratio” for “obtained using the TR-FRET ratio”

## COC(=O)c1ccc2nc(-c3c[nH]c4cc(C)ccc34)n(-c3cc(NC(C)=O)cc(C4CCOCC4)c3)c2c1
BRD4 (BD1) protein
  IC50: > 5 µM
CBP BRD protein
  IC50: > 5 µM

## CNS(=O)(=O)c1ccc2nc(-c3csc4ccccc34)n(-c3ccc4c(c3)n(C)c(=O)n4C)c2c1
BRD4 (BD1) protein
  IC50: > 5 µM
CBP BRD protein
  IC50: 0.5 to 5 µM

## CNS(=O)(=O)c1ccc2nc(-c3cccn3Cc3ccc(F)cc3)n(-c3ccc4c(c3)n(C)c(=O)n4C)c2c1
BRD4 (BD1) protein
  IC50: 0.5 to 5 µM
CBP BRD protein
  IC50: > 5 µM

## CNS(=O)(=O)c1ccc2nc(-c3cn(C)cn3)n(-c3ccc4c(c3)n(C)c(=O)n4C)c2c1
BRD4 (BD1) protein
  IC50: > 5 µM
CBP BRD protein
  IC50: > 5 µM

## CNS(=O)(=O)c1ccc2nc(-c3cccc4cccnc34)n(-c3ccc4c(c3)n(C)c(=O)n4C)c2c1
BRD4 (BD1) protein
  IC50: > 5 µM
CBP BRD protein
  IC50: 0.5 to 5 µM

## CNS(=O)(=O)c1ccc2nc(-c3cccc4ccncc34)n(-c3ccc4c(c3)n(C)c(=O)n4C)c2c1
BRD4 (BD1) protein
  IC50: > 5 µM
CBP BRD protein
  IC50: 0.5 to 5 µM

## CNS(=O)(=O)c1ccc2nc(-c3cncn3C)n(-c3cccc4c3n(C)c(=O)n4C)c2c1
BRD4 (BD1) protein
  IC50: > 5 µM
CBP BRD protein
  IC50: > 5 µM

## Cc1ccc2c(-c3nc4cnccc4n3-c3ccc4c(c3)n(C)c(=O)n4C)c[nH]c2c1
BRD4 (BD1) protein
  IC50: 0.5 to 5 µM
CBP BRD protein
  IC50: 0.5 to 5 µM

## CNS(=O)(=O)c1ccc2nc(-c3cccn3Cc3cc(OC)ccc3Br)n(-c3ccc4c(c3)n(C)c(=O)n4C)c2c1
BRD4 (BD1) protein
  IC50: 0.5 to 5 µM
CBP BRD protein
  IC50: > 5 µM

## Cc1ccc2c(-c3nc4c(N(C)CCCN5CCCCCC5)ncnc4n3-c3ccc4c(c3)n(C)c(=O)n4C)c[nH]c2c1
BRD4 (BD1) protein
  IC50: > 5 µM
CBP BRD protein
  IC50: 0.5 to 5 µM

## CNS(=O)(=O)c1ccc2nc(-c3ccc(O)cc3)n(-c3ccc4c(c3)n(C)c(=O)n4C)c2c1
BRD4 (BD1) protein
  IC50: 0.5 to 5 µM
CBP BRD protein
  IC50: 0.5 to 5 µM

## COc1ccc2c(-c3nc4c(N(C)CCC5CCN(C6CCCC6)CC5)ncnc4n3-c3ccc4c(c3)n(C)c(=O)n4C)c[nH]c2c1
BRD4 (BD1) protein
  IC50: 0.5 to 5 µM
CBP BRD protein
  IC50: < 0.5 µM

## CNS(=O)(=O)c1ccc2nc(-c3ccc[nH]3)n(-c3ccc4c(c3)n(C)c(=O)n4C)c2c1
BRD4 (BD1) protein
  IC50: > 5 µM
CBP BRD protein
  IC50: 0.5 to 5 µM

## Cc1ccc2c(-c3nc4ccc(C(F)F)cc4n3-c3ccc4c(c3)n(C)c(=O)n4C)c[nH]c2c1
BRD4 (BD1) protein
  IC50: > 5 µM
CBP BRD protein
  IC50: > 5 µM

## Cc1ccc2c(-c3nc4ccc(C(=O)O)cc4n3-c3ccc4c(c3)n(C)c(=O)n4C)c[nH]c2c1
BRD4 (BD1) protein
  IC50: > 5 µM
CBP BRD protein
  IC50: > 5 µM

## CNS(=O)(=O)c1ccc2nc(-c3c[nH]c4ccc(C)cc34)n(-c3ccc4c(c3)n(C)c(=O)n4C)c2c1
BRD4 (BD1) protein
  IC50: > 5 µM
CBP BRD protein
  IC50: 0.5 to 5 µM

## CNS(=O)(=O)c1ccc2nc(-c3c[nH]c4cccc(Cl)c34)n(-c3ccc4c(c3)n(C)c(=O)n4C)c2c1
BRD4 (BD1) protein
  IC50: 0.5 to 5 µM
CBP BRD protein
  IC50: < 0.5 µM

## CNS(=O)(=O)c1ccc2nc(-c3c[nH]c4cc(C)ccc34)n(-c3cccc4c3n(C)c(=O)c(=O)n4C)c2c1
BRD4 (BD1) protein
  IC50: > 5 µM
CBP BRD protein
  IC50: > 5 µM

## Cc1ccc2c(-c3nc4ccc(S(C)(=O)=O)cc4n3-c3ccc4c(c3)n(C)c(=O)n4C)c[nH]c2c1
BRD4 (BD1) protein
  IC50: > 5 µM
CBP BRD protein
  IC50: 0.5 to 5 µM

## CNS(=O)(=O)c1ccc2nc(-c3c[nH]c4ccncc34)n(-c3ccc4c(c3)n(C)c(=O)n4C)c2c1
BRD4 (BD1) protein
  IC50: > 5 µM
CBP BRD protein
  IC50: 0.5 to 5 µM

## CNS(=O)(=O)c1ccc2nc(-c3ccccn3)n(-c3ccc4c(c3)n(C)c(=O)n4C)c2c1
BRD4 (BD1) protein
  IC50: > 5 µM
CBP BRD protein
  IC50: > 5 µM

## CNS(=O)(=O)c1ccc2nc(-c3c[nH]c4nccc(Cl)c34)n(-c3ccc4c(c3)n(C)c(=O)n4C)c2c1
BRD4 (BD1) protein
  IC50: 0.5 to 5 µM
CBP BRD protein
  IC50: < 0.5 µM

## CNS(=O)(=O)c1ccc2nc(-c3ccc(NC(C)=O)cc3C)n(-c3ccc4c(c3)n(C)c(=O)n4C)c2c1
BRD4 (BD1) protein
  IC50: > 5 µM
CBP BRD protein
  IC50: > 5 µM

## CNS(=O)(=O)c1ccc2[nH]c(=O)n(-c3ccc4c(c3)n(C)c(=O)n4C)c2c1
BRD4 (BD1) protein
  IC50: > 5 µM
CBP BRD protein
  IC50: > 5 µM

## CNS(=O)(=O)c1ccc2nc(-c3cccc4c(F)cccc34)n(-c3ccc4c(c3)n(C)c(=O)n4C)c2c1
BRD4 (BD1) protein
  IC50: 0.5 to 5 µM
CBP BRD protein
  IC50: 0.5 to 5 µM

## CNS(=O)(=O)c1ccc2nc(-c3cc[nH]c3)n(-c3ccc4c(c3)n(C)c(=O)n4C)c2c1
BRD4 (BD1) protein
  IC50: > 5 µM
CBP BRD protein
  IC50: 0.5 to 5 µM

## Cc1ccc2c(-c3nc4ccc(-c5cnn(C)c5)cc4n3-c3ccc4c(c3)n(C)c(=O)n4C)c[nH]c2c1
BRD4 (BD1) protein
  IC50: > 5 µM
CBP BRD protein
  IC50: > 5 µM

## CNC(=O)c1ccc2nc(-c3c[nH]c4cc(C)ccc34)n(-c3ccc4c(c3)n(C)c(=O)n4C)c2c1
BRD4 (BD1) protein
  IC50: > 5 µM
CBP BRD protein
  IC50: 0.5 to 5 µM

## CNS(=O)(=O)c1ccc2nc(-c3c[nH]c4cc(-c5cnn(C)c5)ccc34)n(-c3ccc4c(c3)n(C)c(=O)n4C)c2c1
BRD4 (BD1) protein
  IC50: 0.5 to 5 µM
CBP BRD protein
  IC50: < 0.5 µM

## CNS(=O)(=O)c1ccc2nc(-c3c[nH]c4cc(C)ccc34)n(-c3cc(NC(C)=O)cc(C4CCOCC4)c3)c2c1
BRD4 (BD1) protein
  IC50: > 5 µM
CBP BRD protein
  IC50: < 0.5 µM

## Cc1ccc2c(-c3nc4ccc(S(N)(=O)=O)cc4n3-c3ccc4c(c3)n(C)c(=O)n4C)c[nH]c2c1
BRD4 (BD1) protein
  IC50: 0.5 to 5 µM
CBP BRD protein
  IC50: < 0.5 µM

## CNS(=O)(=O)c1ccc2nc(-c3ccc4[nH]ncc4c3)n(-c3ccc4c(c3)n(C)c(=O)n4C)c2c1
BRD4 (BD1) protein
  IC50: 0.5 to 5 µM
CBP BRD protein
  IC50: 0.5 to 5 µM

## CNS(=O)(=O)c1ccc2nc(-c3c[nH]c4cc(C)ccc34)n(-c3ccc4c(c3)n(C)c(=O)n4C)c2c1
BRD4 (BD1) protein
  IC50: > 5 µM
CBP BRD protein
  IC50: 0.5 to 5 µM

## CNS(=O)(=O)c1ccc2nc(-c3c[nH]c4cccc(C5CC5)c34)n(-c3ccc4c(c3)n(C)c(=O)n4C)c2c1
BRD4 (BD1) protein
  IC50: > 5 µM
CBP BRD protein
  IC50: 0.5 to 5 µM

## CNS(=O)(=O)c1ccc2nc(-c3c[nH]c4cc(C)ccc34)n(-c3cccc(-c4c(C)noc4C)c3)c2c1
BRD4 (BD1) protein
  IC50: > 5 µM
CBP BRD protein
  IC50: > 5 µM

## CNS(=O)(=O)c1ccc2nc(-c3cn(CC4CC4)c4cc(C)ccc34)n(-c3ccc4c(c3)n(C)c(=O)n4C)c2c1
CBP BRD protein
  IC50: > 5 µM

## CNS(=O)(=O)c1ccc2nc(-c3c[nH]c4cc(F)c(F)cc34)n(-c3ccc4c(c3)n(C)c(=O)n4C)c2c1
CBP BRD protein
  IC50: 0.5 to 5 µM

## Cc1cccc(OCCN(C)c2ncnc3c2nc(-c2c[nH]c4cc(Cl)ccc24)n3-c2ccc3c(c2)n(C)c(=O)n3C)c1
CBP BRD protein
  IC50: > 5 µM

## CN(C)c1ncnc2c1nc(-c1c[nH]c3cccc(F)c13)n2-c1ccc2c(c1)n(C)c(=O)n2C
CBP BRD protein
  IC50: 0.5 to 5 µM

## CNS(=O)(=O)c1ccc2nc(-c3c[nH]c4cc(Br)ncc34)n(-c3ccc4c(c3)n(C)c(=O)n4C)c2c1
CBP BRD protein
  IC50: > 5 µM

## CNS(=O)(=O)c1ccc2nc(-c3c[nH]c4ccc(C(F)(F)F)cc34)n(-c3ccc4c(c3)n(C)c(=O)n4C)c2c1
CBP BRD protein
  IC50: > 5 µM

## Cc1ccc2c(-c3nc4c(Cl)nccc4n3-c3ccc4c(c3)n(C)c(=O)n4C)c[nH]c2c1
CBP BRD protein
  IC50: > 5 µM

## Cc1ccc2c(-c3nc4ccc(S(=O)(=O)NC(C)C)cc4n3-c3ccc4c(c3)n(C)c(=O)n4C)c[nH]c2c1
CBP BRD protein
  IC50: 0.5 to 5 µM

## CNS(=O)(=O)c1ccc2nc(-c3c[nH]c4c(Cl)cccc34)n(-c3ccc4c(c3)n(C)c(=O)n4C)c2c1
CBP BRD protein
  IC50: 0.5 to 5 µM
